The list shows a part of the results, in another mix than the full data. Calls of active or inactive are those of the source.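 The calls were made as follows: active = inhibition above a per-plate limit, mean inhibition of low control wells plus 3 SD (cut at about 25% in these data); inactive = the rest.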
Each molecule was assayed against ADP-ribosylation factor GTPase-activating protein 1 (Rattus norvegicus) (UniProt Q62848) (assay: inhibitors of rat ARFGAP1 GAP activity, primary screen, biochemical, fluorescence polarization, GDP tracer (AID 651572)). Conditions: Arfgap1-stimulated ARF1 GTP hydrolysis, GDP FP detection; at 16.5 µM; active compounds read high.
Summary of the method: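 Material: truncated rat Arfgap1 GAP domain; Incubation: compound-enzyme preincubation 20 min, reaction 120 min, detection 60 min, 25 °C; Read-out: percent inhibition of Arfgap1-stimulated GTP hydrolysis; Technique: FP, GDP Alexa 633 tracer displaced from anti-GDP antibody, 620/688 nm; Controls: No-Arfgap1 wells (100%) versus DMSO full-reaction wells (0%); Replication: single well per compound.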

By UniProt entry, the sequences of proteins in these tests, tags left out.
UniProt Q62848, whole entry, looked up: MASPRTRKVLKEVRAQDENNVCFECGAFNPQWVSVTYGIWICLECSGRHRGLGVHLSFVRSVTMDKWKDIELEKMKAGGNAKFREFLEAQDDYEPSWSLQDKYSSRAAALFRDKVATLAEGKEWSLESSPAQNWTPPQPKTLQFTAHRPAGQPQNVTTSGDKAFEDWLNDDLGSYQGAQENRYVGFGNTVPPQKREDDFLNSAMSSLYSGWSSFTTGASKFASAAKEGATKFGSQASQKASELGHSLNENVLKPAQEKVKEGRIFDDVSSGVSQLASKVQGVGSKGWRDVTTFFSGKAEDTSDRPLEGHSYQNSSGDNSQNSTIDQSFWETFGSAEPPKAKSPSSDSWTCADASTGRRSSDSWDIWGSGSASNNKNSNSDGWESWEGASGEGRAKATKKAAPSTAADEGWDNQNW

SMILES	inhibition
O=C(O)C(=O)c1ccc(N(CCCl)CCCl)cc1	inactive: 4.91%
CCOC(=O)c1ccc(NC(=O)C(C)(CCl)SC)cc1 (centres undefined)	inactive: -2.72%
O=C(OC1CN2CCC1CC2)c1cccc([N+](=O)[O-])c1 (centres undefined)	inactive: -1.39%
CCC(C)N(CC(C)C)C(=S)SC(NC(C)=O)C(Cl)(Cl)Cl (centres undefined)	inactive: 0.42%
O=C(OC1CN2CCC1CC2)C12CC3CC(CC(C3)C1)C2 (centres undefined)	inactive: -7.19%
Cc1cc(=O)[nH]c(N[N+](=O)[O-])n1	inactive: 2.35%
Cc1c2c(nc3ccccc13)SC(C(Cl)Cl)C2 (centres undefined)	inactive: -7.69%
COc1ccc2nc(NP(=O)(c3ccccc3)c3ccccc3)sc2c1	inactive: 0.7%
COc1cc(I)ccc1[As](=O)(O)O	inactive: -7.5%
O=P1(N(CCCl)CCCl)Nc2ccccc2N1	inactive: 6.29%
O=P1(N(CCCl)CCCl)OCCCN1CCCl (centres undefined)	inactive: 2.95%
COc1ccc(N/C(=N/P(=O)(N2CCOCC2)N2CCOCC2)N2CCOCC2)cc1	inactive: 3.14%
O=[N+]([O-])c1cc(Oc2ccc([N+](=O)[O-])cc2C(F)(F)F)cc([N+](=O)[O-])c1	inactive: 2.87%
C[As](=O)(O)c1cccc(C(=O)O)c1	inactive: 5.18%
O=[As](O)(c1ccc(O)cc1)c1ccccc1O	inactive: 2.04%
O=[N+]([O-])c1ccc(-c2cc([N+](=O)[O-])c(O)c([N+](=O)[O-])c2)cc1	inactive: 6.05%
COc1cc(C(=O)NCC2(N3CCOCC3)CCCCC2)ccc1OCC(C)C	inactive: 5.68%
Cc1ccc2nc3c(c(C)c2c1)CC(C(Cl)Cl)S3 (centres undefined)	inactive: -9.95%
Cc1ccc(OP(=O)(Nc2ccc([N+](=O)[O-])cn2)Oc2ccc(C)cc2)cc1	inactive: 0.32%
[N-]=[N+]=NC1CCCCC1NC(=O)c1cc([N+](=O)[O-])cc([N+](=O)[O-])c1 (centres undefined)	inactive: 5.78%
COC(=O)C1(C)COP(=O)(N2CCCCCC2)OC1 (centres undefined)	inactive: -9.21%
CC(C)c1ccc(OP(=O)(Nc2ccccn2)Oc2ccccc2F)cc1 (centres undefined)	inactive: 10.4%
ClCCSc1nnc(-c2cccnc2)o1	inactive: -13.4%
CC(C)NC(=O)NP(=O)(Oc1ccccc1)Oc1ccccc1	inactive: -5.02%
CCN(CC)C(=S)SC(NC=O)C(Cl)(Cl)Cl (centres undefined)	inactive: -9.56%

SMILES	inhibition
O=C(OC1CN2CCC1CC2)c1cccc2[nH]cnc12 (centres undefined)	inactive: 0.47%
CCOP1(=S)c2c(C)nn(CCC#N)c2N=C(c2ccccc2F)N1C (centres undefined)	inactive: 0.14%
O=P(Nc1nccs1)(Oc1ccccc1)Oc1ccccc1	inactive: -0.66%
O=C(O)COc1ccc([As](=O)(O)O)cc1[N+](=O)[O-]	inactive: 8.42%
Nc1ccccc1[As](=O)(O)c1ccccc1	inactive: -2.61%
NC(=O)Nc1ccc([As](=O)(O)O)cc1	inactive: 3.99%
O=[N+]([O-])c1ccc2c(c1)nnn2O	inactive: 2.94%
CN(C)C(=O)c1cc([N+](=O)[O-])cc2c1-c1c(cc([N+](=O)[O-])cc1[N+](=O)[O-])C2=O	inactive: -2.64%
CN(C(=O)Cc1ccc(Cl)c(Cl)c1)[C@H]1CC[C@@]2(CCCO2)C[C@@H]1N1CCCC1	inactive: -13%
N#CCCN(C(=O)COC(=O)C(O)(c1ccccc1)c1ccccc1)c1ccc(F)cc1	inactive: -7.24%
CCOP1(=S)c2c(C)nn(CCC#N)c2N=C(c2ccc(F)cc2)N1C (centres undefined)	inactive: -7.77%
CN(C(=O)Cc1ccccc1)[C@@H]1CC[C@]2(CCCO2)C[C@H]1N1CCCC1	inactive: -8.69%
O=[As](O)(O)c1cccnc1	inactive: -9.83%
COc1cc(C(=O)NCC2(N3CCOCC3)CCCCC2)cc(Cl)c1OC(C)C	inactive: -5.02%
CS(=O)(=O)c1ccc(Cl)c(NC(=O)COC(=O)C(O)(c2ccccc2)c2ccccc2)c1	inactive: 6.78%
O=C(OC1CN2CCC1CC2)c1ccc(Cl)cc1 (centres undefined)	inactive: -2.36%
Cc1cccc(OCC(=O)OC2CN3CCC2CC3)c1 (centres undefined)	inactive: 10.7%
O=[As](O)(c1cccc(O)c1)c1cccc(O)c1	inactive: 9.58%
CCCOP(=S)(Nc1nc(N)cc(=O)[nH]1)OCCC	inactive: 6.53%
Cc1ccc(NCCc2c([N+](=O)[O-])cc([N+](=O)[O-])cc2[N+](=O)[O-])cc1	inactive: 0.53%
Nc1cccc2c([As](=O)(O)O)cccc12	inactive: -3.49%
COc1cc(C2NCCC3(OCCO3)C2(C)C)cc(OC)c1OC (centres undefined)	inactive: -4.88%
CCOP(=O)(Nc1cccc2ccccc12)OCC	inactive: -5.1%
CCOP(=O)(Nc1ccc(C)cn1)OCC	inactive: 3.36%
CN(CCCl)Cc1cc(Cl)c(NC2=NCCN2)c(Cl)c1	inactive: 9.06%

SMILES	inhibition
CCC1=CC2Cc3nc4ccc(Cl)cc4c(N)c3C(C1)C2 (centres undefined)	inactive: 8.51%
O=P1(Nc2ccccn2)COc2ccccc2OC1	inactive: 12.5%
CCOP(=O)(NC(=NC(C)c1ccccc1)NC(C)c1ccccc1)OCC (centres undefined)	inactive: 1.32%
Clc1n[nH]nc1-c1nn[nH][15n]1	inactive: -0.67%
O=P1(N(CCCl)CCCl)NCCC(C(F)(F)F)O1 (centres undefined)	inactive: 3.39%
CC(C)(C)C(=O)NC(Sc1ncccn1)C(Cl)(Cl)Cl (centres undefined)	inactive: -2.53%
COc1ccccc1CNC(=O)COC(=O)C(O)(c1ccccc1)c1ccccc1	inactive: 8.95%
CC1(CBr)Cn2c(nc3ccccc3c2=O)S1 (centres undefined)	inactive: 2.63%
CN(C(=O)Cc1ccc(Cl)c(Cl)c1)[C@@H]1CCCC[C@H]1N1CCCC1	inactive: 8.21%
CC(C)/C=N\N=C(\N)N[N+](=O)[O-]	inactive: -8.78%
CN(C(=O)Cc1ccc(Cl)c(Cl)c1)C1CCCC[C@@H]1N1CCCC1 (some centres undefined)	inactive: -3.7%
Cc1nn(-c2ccccc2)c2c1P(=O)(N1CCOCC1)N(C)C(c1ccccc1)=N2 (centres undefined)	inactive: -4.73%
Cc1ccc(C(=O)OC2CN3CCC2CC3)cc1 (centres undefined)	inactive: -2.67%
CC1CCC(C(C)C)C(OP(=O)(Nc2ccccn2)c2ccccc2)C1 (centres undefined)	inactive: -8.46%
O=C(/C=C/c1ccccc1)OC1CN2CCC1CC2 (centres undefined)	inactive: -0.32%
CCCC1OP(=O)(Nc2ccccc2)OCC1CC (centres undefined)	inactive: 4%
CN(C)C1(CNC(=O)c2ccc(S(C)(=O)=O)cc2)CCCCC1	inactive: 1.01%
O=P1(Nc2ncccn2)COc2ccccc2OC1	inactive: 1.6%
Cc1ccc(S(=O)(=O)N(CCCN)CCCc2c(C)nc(N)[nH]c2=O)cc1	inactive: 3.43%
Cc1ccc(OCC(=O)OC2CN3CCC2CC3)cc1 (centres undefined)	inactive: 1.9%
O=[As](O)(c1cccs1)c1cccs1	inactive: 21.9%
NS(=O)(=O)c1cccc(NC(=O)COC(=O)C(O)(c2ccccc2)c2ccccc2)c1	inactive: 5.91%
O=P1(Nc2ccc(Br)cn2)COc2ccccc2OC1	inactive: -3.39%
Nc1cccc([As](=O)(O)c2ccccc2)c1	inactive: 8.64%
